Values quoted from earlier work in patent US20220192984A1, “PHARMACEUTICAL COMPOSITIONS COMPRISING OTIC THERAPEUTIC AGENTS AND RELATED METHODS” (Frequency Therapeutics, Inc., priority 2018, published 2022).

The chains behind the UniProt entries cited, without tags or fusion partners. Residues count along the entry.
UniProt P27338, whole entry: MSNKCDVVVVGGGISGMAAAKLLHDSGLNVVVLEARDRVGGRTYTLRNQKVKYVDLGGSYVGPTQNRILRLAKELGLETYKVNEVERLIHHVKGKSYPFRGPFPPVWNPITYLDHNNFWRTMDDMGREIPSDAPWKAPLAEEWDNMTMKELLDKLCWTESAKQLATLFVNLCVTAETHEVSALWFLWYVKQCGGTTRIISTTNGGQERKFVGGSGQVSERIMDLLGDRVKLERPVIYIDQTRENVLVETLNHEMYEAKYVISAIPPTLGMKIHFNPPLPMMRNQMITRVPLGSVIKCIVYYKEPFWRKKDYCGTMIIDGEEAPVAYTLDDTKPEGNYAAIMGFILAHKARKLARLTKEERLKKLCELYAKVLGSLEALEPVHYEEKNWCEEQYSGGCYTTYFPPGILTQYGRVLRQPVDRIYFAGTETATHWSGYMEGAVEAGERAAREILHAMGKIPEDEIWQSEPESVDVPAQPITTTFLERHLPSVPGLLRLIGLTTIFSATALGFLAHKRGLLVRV
UniProt P21860, 20-1342: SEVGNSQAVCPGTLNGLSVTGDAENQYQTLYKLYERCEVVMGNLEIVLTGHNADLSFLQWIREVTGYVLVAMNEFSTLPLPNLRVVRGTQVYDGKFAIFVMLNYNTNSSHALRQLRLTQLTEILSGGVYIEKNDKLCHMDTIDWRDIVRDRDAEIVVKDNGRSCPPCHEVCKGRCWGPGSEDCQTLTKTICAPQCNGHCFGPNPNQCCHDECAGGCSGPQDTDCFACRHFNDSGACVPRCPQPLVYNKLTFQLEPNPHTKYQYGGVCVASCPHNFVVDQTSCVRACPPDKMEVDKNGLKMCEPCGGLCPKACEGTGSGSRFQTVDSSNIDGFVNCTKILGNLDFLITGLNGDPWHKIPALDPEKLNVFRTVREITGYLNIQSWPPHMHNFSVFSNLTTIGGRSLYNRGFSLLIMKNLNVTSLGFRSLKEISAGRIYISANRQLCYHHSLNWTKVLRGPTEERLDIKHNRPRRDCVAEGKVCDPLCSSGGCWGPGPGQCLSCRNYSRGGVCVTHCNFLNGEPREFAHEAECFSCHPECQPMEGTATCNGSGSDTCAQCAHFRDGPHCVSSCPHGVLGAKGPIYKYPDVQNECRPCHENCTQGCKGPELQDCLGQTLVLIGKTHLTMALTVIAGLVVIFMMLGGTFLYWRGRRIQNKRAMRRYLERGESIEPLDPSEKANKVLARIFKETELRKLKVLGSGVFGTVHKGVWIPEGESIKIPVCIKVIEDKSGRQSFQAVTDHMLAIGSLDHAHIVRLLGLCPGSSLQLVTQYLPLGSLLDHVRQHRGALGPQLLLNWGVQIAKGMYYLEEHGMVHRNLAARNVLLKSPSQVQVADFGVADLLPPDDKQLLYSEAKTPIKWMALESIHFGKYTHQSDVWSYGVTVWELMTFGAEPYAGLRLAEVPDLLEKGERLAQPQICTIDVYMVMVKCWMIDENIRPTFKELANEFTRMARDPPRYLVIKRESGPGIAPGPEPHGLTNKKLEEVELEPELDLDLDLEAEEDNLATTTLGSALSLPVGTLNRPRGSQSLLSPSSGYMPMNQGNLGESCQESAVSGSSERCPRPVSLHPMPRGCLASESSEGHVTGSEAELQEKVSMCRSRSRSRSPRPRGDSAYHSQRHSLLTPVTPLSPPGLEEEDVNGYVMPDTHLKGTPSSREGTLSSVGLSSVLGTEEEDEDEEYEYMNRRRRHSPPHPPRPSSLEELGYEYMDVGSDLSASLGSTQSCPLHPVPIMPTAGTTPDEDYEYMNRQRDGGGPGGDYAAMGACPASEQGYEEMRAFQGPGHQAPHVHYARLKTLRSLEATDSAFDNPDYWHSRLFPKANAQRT
UniProt Q15910, whole entry, species assumed: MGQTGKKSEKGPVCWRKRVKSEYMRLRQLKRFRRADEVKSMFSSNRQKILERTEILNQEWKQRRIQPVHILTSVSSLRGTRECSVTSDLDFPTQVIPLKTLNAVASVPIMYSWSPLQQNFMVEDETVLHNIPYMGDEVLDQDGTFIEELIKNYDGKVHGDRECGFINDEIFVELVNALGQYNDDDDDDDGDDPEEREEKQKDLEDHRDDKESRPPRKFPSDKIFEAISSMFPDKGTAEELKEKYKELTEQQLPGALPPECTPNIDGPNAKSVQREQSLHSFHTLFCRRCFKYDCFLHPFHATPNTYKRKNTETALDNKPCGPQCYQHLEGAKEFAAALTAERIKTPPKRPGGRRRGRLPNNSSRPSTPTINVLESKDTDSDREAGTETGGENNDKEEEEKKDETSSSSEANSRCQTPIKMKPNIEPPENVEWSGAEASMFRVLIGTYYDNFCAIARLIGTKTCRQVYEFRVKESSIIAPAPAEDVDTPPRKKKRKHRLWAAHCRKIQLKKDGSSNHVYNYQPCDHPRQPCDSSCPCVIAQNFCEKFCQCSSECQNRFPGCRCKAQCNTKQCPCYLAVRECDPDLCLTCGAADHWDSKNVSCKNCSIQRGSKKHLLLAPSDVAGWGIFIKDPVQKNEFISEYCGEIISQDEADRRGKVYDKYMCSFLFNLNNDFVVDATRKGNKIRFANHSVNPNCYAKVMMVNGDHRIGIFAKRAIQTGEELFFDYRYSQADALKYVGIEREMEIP

Assays:
MAO B = MAO B (Homo sapiens, UniProt P27338); conditions: Table 18, MAO B (second value or marked B); read-out: Select MAOs A and B; cited from earlier work
ErbB3/HER3 = ErbB3/HER3 (Homo sapiens, UniProt P21860); conditions: read-out: HER 3 pKi or IC50 (converted); cited from earlier work
EZH2 [1] = target: T1, EZH2 (Homo sapiens, UniProt Q15910); conditions: cited from earlier work
EZH2 [2] = target: T1, EZH2; conditions: Table 19, EZH2; read-out: pKi or IC50 (converted); cited from earlier work

N[C@H]1CC[C@H](N[C@@H]2C[C@H]2c2ccccc2)CC1 (relative stereo) [ORY-1001]
IC50 (MAO B): > 100000 nM

CNC(=O)CN1CCC(Oc2cc3c(Nc4cccc(Cl)c4F)ncnc3cc2OC)CC1 [Sapitinib/AZD8931/]
IC50 (ErbB3/HER3): 4 nM

Cc1cc(C)c(CNC(=O)c2cc(Cl)c3c(c2C)O[C@@](C)([C@H]2CC[C@H](N(C)C)CC2)O3)c(=O)[nH]1 [Valemetostat]
Lit Cell Poten (EZH2 [1]): 25 to 250 nM

CCCc1cc(C)[nH]c(=O)c1CNC(=O)c1cc(-c2ccnc(N3CCN(C)CC3)c2)cc2c1cnn2C(C)C [GSK343]
IC50 (EZH2 [2]): 1.2 nM

CCN(c1cc(C#CCN2CCOCC2)cc(C(=O)NCc2c(C)cc(C)[nH]c2=O)c1C)[C@H]1CC[C@H](N(C)CCOC)CC1 [EPZ-011989]
IC50 (EZH2 [2]): < 3 nM
